Measurements published in US10987336B2, “Method of preventing or treating side effect of tumor therapy” (priority 2018, dated 2021).
Some compounds may have been tested in ways that are not shown here.

Test system: HUVEC cells
Assay: CCK-8 cell survival: ameliorating proliferative toxicity of VEGF/VEGFR inhibitor (Examples 4-15)
Type: cell-based
Conditions: agent 100 μM, 24-48 h

O=[N+]([O-])OCC(CO[N+](=O)[O-])(CO[N+](=O)[O-])CO[N+](=O)[O-]
Cell Survival Rate (viable cells increased vs VEGF/VEGFR inhibitor group) (Regorafenib 10 μM): Increased by 20-25% | Cell Survival Rate (viable cells increased vs VEGF/VEGFR inhibitor group) (Sorafenib 5 μM): Increased by 30-40% | Cell Survival Rate (viable cells increased vs VEGF/VEGFR inhibitor group) (Sunitinib 5 μM): Increased by 25-35%
